# Measured affinities in a library of Ab-14 light chain variants

All variants were tested on one target, the spike HR2 peptide PDVDLGDISGINAS (SARS-CoV-2).

Parent: Ab-14, a human scFv built as VH, a (GGGGS)3 linker, VL. Only the CDRs of the light chain vary.
VH: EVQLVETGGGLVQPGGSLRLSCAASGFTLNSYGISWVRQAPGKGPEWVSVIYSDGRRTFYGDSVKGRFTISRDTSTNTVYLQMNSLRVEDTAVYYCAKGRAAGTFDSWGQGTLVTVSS
VL: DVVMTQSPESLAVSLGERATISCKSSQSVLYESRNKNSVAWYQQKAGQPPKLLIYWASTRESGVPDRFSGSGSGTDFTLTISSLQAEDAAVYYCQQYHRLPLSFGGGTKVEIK

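The parent was found by panning a naive human phage display library on the peptide. Variants in AAYL50 differ from the parent at up to three CDR positions; double and triple changes were sampled at random. The scFvs were displayed on barcoded MATa yeast, the peptide on MATalpha yeast. Binding brings cells together so that they mate, and sequencing counts the barcode pairs among the diploids. Scores were corrected for input abundance and mapped to Kd with protein pairs of known affinity run in the same pool. Mating was done three times.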

Substitutions are numbered in sequence along the VL above, starting at 1 (not Kabat).
Affinities are written as log10 Kd with Kd in nM; a lower number is a better binder.
Replicates are averaged; those with no signal do not enter the mean.
"n.d." marks a missing value. The strain was present, yet no cells mated with the target were sequenced in that replicate, which points to weak or no binding.

changes | replicates, log10 nM | mean, log10 nM
A57T+Y97D+R99P | n.d. n.d. n.d. | n.d.
S25P+N35M+R99L | n.d. n.d. n.d. | n.d.
Q27F+S58N+P101F | 1.25 1.33 1.61 | 1.40
A57F+S58C+L102I | n.d. n.d. n.d. | n.d.
Q27N+Y31S+N35L | 0.57 0.63 0.51 | 0.57
Y31D+R99D | 0.75 0.86 0.86 | 0.82
V39C+A57F+Q95F | n.d. 4.04 4.72 | 4.38
Q27M+R60E+P101W | n.d. n.d. n.d. | n.d.
E32C+N35K+S103Q | n.d. n.d. n.d. | n.d.
Y31Q+N35S+R99L | 1.19 1.32 1.25 | 1.25
V29H+S33T+W56N | 0.02 0.30 0.21 | 0.18
V29N+Y31M+E32R | 2.46 2.07 2.51 | 2.35
S33L+R34E+V39P | 4.18 4.07 n.d. | 4.12
K24L+Q27K+L102Q | 2.54 2.18 3.23 | 2.65
A40S+Q96M | n.d. n.d. n.d. | n.d.
V39Y+L100Y | n.d. 4.89 n.d. | 4.89
S28K+W56C+R99D | n.d. 2.94 n.d. | 2.94
S28L+T59M+P101G | 3.69 n.d. 4.32 | 4.01
S28D+Y31K+S33H | n.d. n.d. n.d. | n.d.

The remaining entries, values ahead:

replicates, log10 nM | mean, log10 nM | changes
n.d. n.d. n.d. | n.d. | S62H+P101A
n.d. n.d. n.d. | n.d. | S28Q+E32W+S38C
2.28 2.29 2.93 | 2.50 | K24W+N37Q+H98V
1.73 1.66 1.89 | 1.76 | S62E+L100E
3.11 2.59 3.12 | 2.94 | Y31W+N37R+H98C
4.43 2.92 3.87 | 3.74 | Q27C+Q95I+H98F
1.78 1.29 1.21 | 1.43 | N37Q+S62N+R99Q
1.44 1.44 1.57 | 1.49 | E32G+R34L+H98W
0.83 1.25 1.17 | 1.08 | W56H+Q96K+H98C
2.06 1.92 2.33 | 2.10 | Y31A+E32R
5.35 n.d. n.d. | 5.35 | Y31F+V39I+W56I
n.d. n.d. 3.12 | 3.12 | S28F+E32P
n.d. 4.84 5.46 | 5.15 | N35Y+A57L+R60S
0.88 1.08 0.70 | 0.89 | Q27F+R34P+T59A
1.48 1.48 1.58 | 1.51 | K24Y+V29C+Y31H
5.39 n.d. 4.84 | 5.12 | S26W+V29F+S38F
4.32 n.d. n.d. | 4.32 | A40R+A57K
n.d. n.d. n.d. | n.d. | S25H+R99W+L102Q
2.79 2.16 n.d. | 2.47 | L30R+S38Q+E61I
2.66 1.95 2.19 | 2.27 | S25N+S38G+E61V

The 2 strongest on average among those seen in every replicate, once more:

changes,"replicates, log10 nM","mean, log10 nM"
V29H+S33T+W56N,0.02 0.30 0.21,0.18
Q27N+Y31S+N35L,0.57 0.63 0.51,0.57

Nonspecific signal, from three strains lacking the peptide, appeared in 18% of pairings of library AAYL50, centred on 4.19 (5% of these signals below 2.99); values are not corrected for it.
For reference, the parent read 0.65 as the reference entry and 1.68 as a member of this library.

Values reported by Engelhart et al. 2022, doi:10.1038/s41597-022-01779-4 (FLAb copy).